Experimental data as given in EP4552657A1, “RADIOPHARMACEUTICAL COMPLEXES AND COMBINATIONS” (priority 2023, dated 2025).

Columns and labels:
[1] = tested on: HER2-expressing breast carcinoma xenograft model JIMT-1; settings: 500 kBq/kg IV
Procedure: Animals were pre-treated with 200 µg/mouse unspecific IgG2a antibody 24 h prior to hot dosing.

[2] = tested on: ZR-75-1 breast cancer model; assay: In vivo antitumor efficacy in ZR-75-1 model; parameters: species or system mice
Procedure: The antitumor efficacy of ^225Ac-Macropa-Trastuzumab was assessed in the ZR-75-1 breast cancer model. Female NMRI nu/nu mice were implanted s.c. with estradiol pellets and were inoculated subcutaneously with 5×10^6 ZR-75-1 cells 1-2 days later.
Animals were randomized into treatment groups at an average tumor size of 169 mm^3 (n=12) and treatment was started.

JIMT-1 cells = settings: 20 kBq/µg; 30 min, 2 hrs and 18 hrs of exposure; viability at day 6; vs isotype control
JIMT-1 and SKOV-3 cells = settings: 20 kBq/µg; 50 µg/ml Trastuzumab added 2 hours before; 6 days
[3] = tested on: HER2-expressing cell lines JIMT-1, MCF-7, T-47D and ZR-75-1; settings: 2, 10 and 20 kBq/µg; 6 days; vs isotype control at 20 kBq/µg

Row | Substance | uptake in liver, spleen, and kidneys ([1]; all timepoints (24, 72, 168, 336 hours)) | uptake in femur ([1]; all timepoints) | tumor uptake and retention ([1]; over 336 h) | anti-tumor efficacy ([2]; mouse, in vivo) | cytotoxicity (JIMT-1 cells) | cytotoxicity and its inhibition by Trastuzumab (JIMT-1 and SKOV-3 cells) | specificity of cytotoxicity [3] | anti-tumor efficacy ([2]; 225Ac conjugate 125 or 250 kBq/kg day 0 and 28 i.v., Enhertu 2.7 or 5.4 mg/kg day 0 and 21 i.v.)
1 | Ac-225-macropa-Trastuzumab: Ac-225 macropa complex bound to the anti-HER2 monoclonal antibody Trastuzumab via a Lysine residue | less than 5 %ID/g | less than 2 %ID/g | high tumor uptake and retention over 336 h | very strong and durable anti-tumor efficacy with complete remissions until end of the study in the higher dose group (250 kBq/kg) | strong and specific cytotoxicity | strong cytotoxicity was achieved which was totally inhibited in the presence of cold Trastuzumab | increasing specificity with increasing specific activity | –
2 | fam-trastuzumab deruxtecan-nxki [Enhertu, reference compound] | – | – | – | – | – | – | – | onset of tumor regrowth at -day 50
